Measurements from PubChem BioAssay AID1885 (Broad Institute, 2009).
The entries are a selection whose mix differs from that of the whole data set. The source made the active and inactive calls.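 Rule for the calls: active = mean inhibition across valid replicates above about 55% (limit read from the data); inconclusive = mean below that limit but half or more replicates reach it; inactive = mean below it, under half of replicates reach it.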

Assay: inhibitors of intracellular T. cruzi growth, primary screen, luminescence, NIH3T3 host cells (AID 1885);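 note: signal also drops with host cell toxicity which is not excluded here; 0% = plate median of DMSO wells and 100% = zero luminescence signal; higher percent means less beta-gal luminescence so fewer parasites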
Conditions: T. cruzi beta-gal in NIH3T3, luminescence, 90 h; active compounds read high; concentration not given here
How it was run: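 Material: NIH/3T3 host cells with β-galactosidase reporter T. cruzi; Input: 5,000 host fibroblasts per well; Medium: DMEM, 2% fetal bovine serum; Compound: 50 nL DMSO compound solution per well; Schedule: 3 h host attachment, then at least 90 h co-culture; Detection: luminescent β-galactosidase signal after 60 min lysis.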

Compound | inhibition
COc1ccccc1OP(C)(=O)Nc1ccc(Br)cc1 (stereo not given) | inactive: -5.94%
Cc1ccc(N/C(=N/P(=O)(N2CCOCC2)N2CCOCC2)N2CCOCC2)cc1 | inactive: -3.04%
NC(=O)c1cc([N+](=O)[O-])cc([N+](=O)[O-])c1N | inactive: 6.49%
CCc1ccc(OP(C)(=O)O)cc1 | inactive: 1.52%
CP(=O)(Nc1ccccn1)Oc1ccccc1 (stereo not given) | inactive: -4.88%
COc1ccccc1OP(C)(=O)Nc1ccc(C)cc1C (stereo not given) | inactive: -9.54%
Oc1ccccc1CNc1ccccn1 | inactive: 2.1%
O=C(NC(Sc1ccncn1)C(Cl)(Cl)Cl)c1ccccc1 (stereo not given) | inactive: 0.215%
Cc1c2non([O-])c-2c(C)[n+](=O)[n+]1[O-] | inactive: -9.85%
Cc1c(NP(C)(=O)Oc2ccc(C(C)C)cc2)c(=O)n(-c2ccccc2)n1C (stereo not given) | inactive: -5.68%
Nc1cc(N)c2nonc2c1[N+](=O)[O-] | inactive: -2.58%
CC(C)CC(=O)NC(Sc1ccc(Cl)cc1)C(Cl)(Cl)Cl (stereo not given) | inactive: 19.3%
COc1ccc(OP(C)(=O)Nc2ccccc2Br)cc1 (stereo not given) | inactive: -42.1%
Cc1cc(SC(NC(=O)c2ccc(F)cc2)C(Cl)(Cl)Cl)ncn1 (stereo not given) | inactive: -2.37%
CCOP(=O)(Nc1ccccc1)OCC | inactive: 0.986%
COc1ccccc1OP(C)(=O)Nc1ccc(C)c(C)c1 (stereo not given) | inactive: 7.16%
Cc1ccc(NP(=O)(Oc2ccccc2F)Oc2ccccc2F)nc1 | inactive: -5.34%
CN(C(=O)Cc1ccc(Cl)c(Cl)c1)[C@H]1CCCC[C@@H]1N1CCCC1 | inactive: 17.9%
O=P(Nc1nc2ccc(Cl)cc2s1)(c1ccccc1)c1ccccc1 | inactive: -24%
Cc1cc(C)cc(OP(C)(=O)Nc2cccc(C(F)(F)F)c2)c1 (stereo not given) | inactive: 32.3%
CC(=O)Nc1ccc([As](=O)(O)O)cc1 | inactive: -3.49%
O=C(O)c1ccccc1[As](=O)(O)O | inactive: -9.06%
Nc1cccc2ccc([As](=O)(O)O)cc12 | inactive: -10.8%
CP(=O)(Nc1ccc(Cl)cc1Cl)Oc1ccccc1 (stereo not given) | inactive: -10.2%
CP(=O)(OCCOc1ccccc1)OCCOc1ccccc1 | inactive: -4.19%

Compound | inhibition
CCN(N=Nc1nonc1N)c1nonc1N | inactive: -10.7%
O=[N+]([O-])c1cc([N+](=O)[O-])c(CCN2CCOCC2)c([N+](=O)[O-])c1 | inactive: 29.9%
Cc1nc2ccc3ccccc3c2o1.O=[N+]([O-])c1cc([N+](=O)[O-])c(O)c([N+](=O)[O-])c1 | inactive: 52%
Cc1ccc(OP(=O)(Nc2ccc([N+](=O)[O-])cn2)Oc2ccc(C)cc2)cc1 | inactive: 4.65%
CC(C)(C)c1ccc(OP(C)(=O)Nc2ccc(SC(F)(F)F)cc2)cc1 (stereo not given) | active: 65%
Cc1cccc(C)c1OP(C)(N)=O (stereo not given) | inactive: 0.387%
O=[N+]([O-])c1ccc2c(c1)C=Nc1ccccc1O2 | inactive: -17.5%
Cc1ccc2nc3c(c(C)c2c1)CC(C(Cl)Cl)S3 (stereo not given) | inactive: -5.59%
O=[N+]([O-])c1cc([N+](=O)[O-])c(Nc2cccnc2)c([N+](=O)[O-])c1 | inactive: 44.8%
C[As](=O)(O)c1cccc(C(=O)O)c1 | inactive: -4.82%
O=[As](O)(c1ccc(O)cc1)c1ccccc1O | inactive: -5.63%
COc1ccccc1OP(C)(=O)Nc1cc(Cl)ccc1C (stereo not given) | inactive: -5.66%
CC(C)NC(=O)NP(=O)(Oc1ccccc1)Oc1ccccc1 | inactive: -16.5%
COc1ccc(OP(C)(=O)Nc2cccc(F)c2)cc1 (stereo not given) | inactive: -3.62%
Cc1cc(C)cc(OP(C)(N)=O)c1 (stereo not given) | inactive: -10.4%
CCOC(=O)c1ccc(NP(C)(=O)Oc2ccccc2)cc1 (stereo not given) | inactive: 4.61%
ClCCSc1nnc(-c2cccnc2)o1 | inactive: -7.74%
COc1ccccc1OP(C)(=O)Nc1ccc(C)cc1 (stereo not given) | inactive: -19.9%
Cc1ccc(NP(C)(=O)Oc2ccccc2)c(C)c1 (stereo not given) | inactive: -10.4%
CC(C)c1ccc(OP(=O)(Nc2ccccn2)Oc2ccccc2F)cc1 (stereo not given) | inactive: -10.8%
COc1ccc2nc(NP(=O)(c3ccccc3)c3ccccc3)sc2c1 | inactive: -1.02%
COc1cc(I)ccc1[As](=O)(O)O | inactive: 1.91%
Cc1c2c(nc3ccccc13)SC(C(Cl)Cl)C2 (stereo not given) | inactive: 26.2%
O=C(OC1CN2CCC1CC2)C12CC3CC(CC(C3)C1)C2 (stereo not given) | inactive: 18.4%
Cc1cc(=O)[nH]c(N[N+](=O)[O-])n1 | inactive: -20.4%

Compound | inhibition
CCN(CC)CCCOC(=O)C(O)(c1ccccc1)c1ccccc1 | inactive: -13.1%
COc1ccc(N/C(=N/P(=O)(N2CCOCC2)N2CCOCC2)N2CCOCC2)cc1 | inactive: -5.42%
O=C(COc1ccccc1)OC1CN2CCC1CC2 (stereo not given) | inactive: -3.49%
CP(=O)(NC(=O)Nc1ccccc1)Oc1ccccc1 (stereo not given) | inactive: -13.1%
CCc1ccc(OP(C)(=O)N2CCN(c3ccc([N+](=O)[O-])cc3)CC2)cc1 (stereo not given) | inactive: 9.16%
O=C(Nc1ccncc1[N+](=O)[O-])c1ccc([N+](=O)[O-])cc1[N+](=O)[O-] | inactive: 18.2%
Cc1cc(C)cc(OP(C)(=O)Nc2ccc(SC(F)(F)F)cc2)c1 (stereo not given) | inactive: 22.6%
COP1(=S)c2c(C)nn(CCC#N)c2N=C(c2ccc(F)cc2)N1C (stereo not given) | inactive: 0.252%
Cc1cccc(C)c1OP(C)(=O)Nc1ccc(SC(F)(F)F)cc1 (stereo not given) | inactive: 19%
CP(=O)(Nc1ccc(SC(F)(F)F)cc1)Oc1ccc(Cl)cc1 (stereo not given) | inactive: 35.8%
CP(=O)(Oc1ccccc1)OC(c1ccccc1)C(F)(F)F (stereo not given) | inactive: -15.9%
CP(=O)(Nc1ccccn1)Oc1ccc(Cl)cc1 (stereo not given) | inactive: -10%
CCOP(C)(=S)SCC(=O)NC(C)C(=O)O (stereo not given) | inactive: -8.94%
O=C(OC1CN2CCC1CC2)c1cccc([N+](=O)[O-])c1 (stereo not given) | inactive: -6.86%
CCOC(=O)c1ccc(NC(=O)C(C)(CCl)SC)cc1 (stereo not given) | inactive: -12.5%
CCOC(=O)c1ccc(NP(C)(=O)Oc2ccc(OC)cc2)cc1 (stereo not given) | inactive: -13%
O=[N+]([O-])c1cc([N+](=O)[O-])c(O)c([N+](=O)[O-])c1.c1ccc(Oc2ccncc2)cc1 | inactive: 2.4%
CCCCOc1ccc(C(=O)NCC2(N3CCCCC3)CCCCC2)cc1OC | inactive: 8.49%
Cc1cc(SC(NC(=O)c2ccccc2)C(Cl)(Cl)Cl)nc(C(C)C)n1 (stereo not given) | inactive: -8.72%
CCOC(=O)Nc1ccc([As](=O)(O)O)c(O)c1 | inactive: 2.5%
O=P(Nc1ccccn1)(c1cccc2ccccc12)c1cccc2ccccc12 | inactive: 6.27%
Cc1cc(SC(NC=O)C(Cl)(Cl)Cl)ncn1 (stereo not given) | inactive: -2.66%
COc1ccccc1OP(C)(=O)Nc1ccccc1 (stereo not given) | inactive: -9.43%
CP(=O)(Nc1ccccc1Br)Oc1ccccc1 (stereo not given) | inactive: -10.5%
O=[N+]([O-])c1ccc(Nc2ccc(Oc3ccc([N+](=O)[O-])cc3[N+](=O)[O-])cc2)c([N+](=O)[O-])c1 | inactive: -5.39%

Compound | inhibition
CP(=S)(Nn1cnnc1)Oc1ccccc1 (stereo not given) | inactive: -8.72%
CCOC(=O)Nc1cccc([As](=O)(O)O)c1 | inactive: -18%
CN(C)C1(CNC(=O)c2ccc(S(C)(=O)=O)cc2)CCCCC1 | inactive: 0.554%
O=[N+]([O-])c1cc([N+](=O)[O-])c(Nc2nnnn2CCO)c([N+](=O)[O-])c1 | inactive: 8%
CCOC(=O)C(CC)C1=NC(C)(C)Cc2ccccc21.O=[N+]([O-])c1cc([N+](=O)[O-])c(O)c([N+](=O)[O-])c1 (stereo not given) | inactive: -8.37%
O=C(/C=C/c1ccccc1)OC1CN2CCC1CC2 (stereo not given) | inactive: 11.9%
Cc1nn(-c2ccccc2)c2c1P(=O)(N1CCOCC1)N(C)C(c1ccccc1)=N2 (stereo not given) | inactive: -8.66%
CC1CCC(C(C)C)C(OP(=O)(Nc2ccccn2)c2ccccc2)C1 (stereo not given) | inactive: 8.94%
Cc1ccc(C(=O)OC2CN3CCC2CC3)cc1 (stereo not given) | inactive: -9.5%
COc1cc(C2NCCC3(OCCO3)C2(C)C)cc(OC)c1OC.O=[N+]([O-])c1cc([N+](=O)[O-])c(O)c([N+](=O)[O-])c1 (stereo not given) | inactive: 10.5%
CCCOc1ccc(NP(C)(=O)Oc2ccc(Cl)cc2)cc1 (stereo not given) | inactive: 26%
CP(=O)(Nc1ccc(SC(F)(F)F)cc1)Oc1ccccc1 (stereo not given) | inactive: 3.24%
Nc1cccc([As](=O)(O)c2ccccc2)c1 | inactive: -9.84%
Cc1ccc(OCC(=O)OC2CN3CCC2CC3)cc1 (stereo not given) | inactive: -5.47%
O=[As](O)(c1cccs1)c1cccs1 | inactive: 6.84%
O=P1(Nc2ccc(Br)cn2)COc2ccccc2OC1 | inactive: 2.92%
COc1ccccc1OP(C)(=O)Nc1c(C)cccc1C (stereo not given) | inactive: -10.6%
CN1CCCCC1COC(=O)C1(O)c2ccccc2CCc2ccccc21 (stereo not given) | inactive: 2.19%
O=P1(Nc2ncccn2)COc2ccccc2OC1 | inactive: -10.6%
Clc1n[nH]nc1-c1nn[nH][15n]1 | inactive: -12.1%
CC(C)(C)C(=O)NC(Sc1ncccn1)C(Cl)(Cl)Cl (stereo not given) | inactive: 0.0862%
O=P1(Nc2ccccn2)COc2ccccc2OC1 | inactive: -1.92%
O=[N+]([O-])c1cc([N+](=O)[O-])c(-n2nnc3ccccc32)c([N+](=O)[O-])c1 | inactive: -17.7%
CCOP(=O)(NC(=NC(C)c1ccccc1)NC(C)c1ccccc1)OCC (stereo not given) | inactive: -0.582%
CCOP(=O)(Nc1ccc(C)cn1)OCC | inactive: 3.76%
